Shown are actives, neighbours in structure and some others; about 2.8% of the full set was active somewhere.
PGC1a acetyl inh – PGC1a acetylation modulation, inhibitor mode; U2OS PGC1a acetylation, AlphaScreen anti-acetyl-lysine; with virally co-expressed GCN5 acetyltransferase; inhibition, % at 15.6 µM; 0.17% of 350,000 active; AID 651687;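 active means every replicate shows inhibition of at least 40%; inconclusive means mean inhibition at least 40% but some replicate below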;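 further: 0% = neutral control wells and 100% = positive control wells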
esBAF inh – inhibitors of esBAF chromatin remodeling in mouse ES cells; Bmi1-luciferase knock-in reporter, 24 h; 100% = twice the neutral-well signal; reporter increase, % at 12.5 µM; 2% of 350,000 active; AID 602393; in the data active means activation above about 40%; inconclusive means no clear call, values can overlap the other calls;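 further: 0% = median of the plate's neutral control wells and 100% = double that signal; a rise in the Bmi1 reporter signal indicates esBAF inhibition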
E-sel inducer – E-selectin induction on HUVECs; activation, % at 7.58 µM; HUVEC E-selectin immunofluorescence imaging; normalized: neutral wells 0, TNF-alpha wells 100; P16581; 0.37% of 260,000 active;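 active means mean E-selectin-positive cell signal at least 10% of the positive control, reached in at least 60% of replicates, without over 20% cell loss; inconclusive means no rule given, readout overlaps actives, possibly toxicity-flagged; inactive means the rest, including those meeting only one limit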
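System: HUVEC / Compound: single concentration / Signal: immunofluorescence imaging / Read-out: percent E-selectin-positive cells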
PglD DTNB – blocks C. jejuni PglD acetyltransferase activity; AID 602405; 0.098% of 360,000 active; purified PglD enzyme, DTNB colorimetric CoA detection; inhibition, % at 12.5 µM; in the data active means inhibition above about 16%, passing the limit was not always enough; inconclusive means no clear call, values can overlap the other calls
Statin myotox sup – suppressors of simvastatin-induced myotoxicity in C2C12 myotubes; ATP luminescence, 48 h; scaled: DMSO 0, geranylgeraniol control 100; AID 602340; 0.78% of 330,000 active; rescue of ATP level, % at 7.49 µM;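 active means mean ATP rescue above about 67%, or every replicate alone reaching that limit, limit read from the data, passing the limit was not always enough; inconclusive means no clear call, values can overlap the other calls; inactive means mean under the limit and some replicate under it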;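 further: myotubes were challenged with 10 µM simvastatin during compound exposure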
Yeast UUG start – alters start codon recognition fidelity in yeast | S. cerevisiae UUG-firefly luciferase reporter, luminescence/redox ratio | activity score, % at 18.7 µM | hit rate 0.13% among 350,000 | AID 602363;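 active means replicate mean at a twofold rise or more, about +100% in these data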;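 further: firefly luciferase made from a UUG start codon reports start codon fidelity; reporter light over untreated wells divided by growth signal over untreated wells; some hits fall short of that in this replicate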
Active calls of the source: *; ? = inconclusive; nt = no result given.

Sequence of screens: PGC1a acetyl inh | esBAF inh | E-sel inducer | PglD DTNB | Statin myotox sup | Yeast UUG start
CCC1(C)Cc2c(sc3[nH]c(=O)[nH]c(=O)c23)CS1 (stereo not drawn)
  -14 | -9 | nt | -6 | 100* | -20
COc1ccc2c3c([nH]c2c1)[C@H](CO)N(Cc1ccncc1)CC31CCN(C(=O)Cc2ccncc2)CC1
  nt | nt | 0 | nt | nt | nt
Fc1ccc(-c2csc(N3CCSCC3)n2)cc1
  5 | 46* | nt | 2 | 1 | -26
CCc1ccccc1NC(=O)c1cnn(-c2ccccc2)c1C
  -15 | 23 | nt | -5 | 18 | -10
Cc1ccccc1NC(=O)c1cnn(-c2ccccc2)c1C
  10 | 75* | nt | -2 | -11 | -7
Cc1cccc(NC(=O)c2cnn(-c3ccccc3)c2C)c1C
  11 | 63* | nt | 2 | 9 | -21
Cc1ccc(C)c(NC(=O)c2cnn(-c3ccccc3)c2C)c1
  9 | 27 | nt | 4 | -4 | -14
Cc1ccc(S(=O)(=O)Nc2ccc3c(c2)C(=O)N([C@@H](C)CO)C[C@@H](C)[C@@H](CN(C)Cc2ccc(C(=O)O)cc2)OCCCC[C@H](C)O3)cc1
  5 | 1 | nt | 2 | nt | 16
CSc1nc2c(cnn2-c2ccccc2)c(=O)n1N
  6 | 48* | nt | nt | 11 | nt
CC(=O)c1sc2nc(-c3cccs3)ccc2c1N
  -14 | 65* | nt | -3 | 9 | -25
COc1ccc2c3c(n(C)c2c1)[C@H](CO)N(C(=O)C1CC1)CC31CCN(C(=O)Nc2cccc(F)c2)CC1
  nt | nt | 0 | nt | nt | nt
C[C@@H]1CN([C@H](C)CO)C(=O)c2cc(NC(=O)c3ccncc3)ccc2O[C@@H](C)CCCCO[C@@H]1CN(C)Cc1ccc(C(=O)O)cc1
  -7 | 3 | 0 | 4 | nt | -3
Cc1nn(CCOc2ccccc2)c(=O)n1-c1ccccc1
  8 | 43* | -1 | -3 | -3 | -22
Nc1nc(CN2CCN(c3ccccc3)CC2)nc(N2CCCc3ccccc32)n1
  0 | 5 | -1 | 5 | 3 | -13
Nc1nc(CSc2nnnn2-c2ccccc2)nc(N2CCCc3ccccc32)n1
  -5 | -8 | nt | 1 | 115* | -24
c1cncc(-c2nnc(-c3ccco3)o2)c1
  6 | 18 | nt | -4 | 4 | -3
Clc1ccc(-c2nnc(-c3ccco3)o2)cc1
  -3 | 60* | nt | -3 | 27 | -15
COc1ccc(CNC(=O)N(C)C[C@@H]2OCc3ccccc3-c3c(n(C)c4ccccc34)C(=O)N([C@@H](C)CO)C[C@@H]2C)cc1
  nt | nt | -6 | nt | nt | nt
COc1cccc(S(=O)(=O)N(C)C[C@H]2OCc3ccccc3-c3c(n(C)c4ccccc34)C(=O)N([C@@H](C)CO)C[C@H]2C)c1
  -15 | -2 | 0 | 1 | 69* | nt
COc1ccc(CNC(=O)N(C)C[C@@H]2OCc3ccccc3-c3c(n(C)c4ccccc34)C(=O)N([C@H](C)CO)C[C@@H]2C)cc1
  9 | 46* | 0 | 1 | 9 | nt
COc1cccc(S(=O)(=O)N(C)C[C@@H]2OCc3ccccc3-c3c(n(C)c4ccccc34)C(=O)N([C@@H](C)CO)C[C@@H]2C)c1
  3 | 4 | 0 | 1 | 25 | nt
C[C@H](CO)N1C[C@H](C)[C@@H](CN(C)C)Oc2cc(C#Cc3cccnc3)ccc2S1(=O)=O
  7 | 0 | 3 | 0 | 16 | -11
C=C(C)Cn1c(=S)[nH]c2ccccc2c1=O
  10 | 1 | 0 | 0 | 144* | -14
Clc1ccc(OCc2nc(-c3ccncc3)no2)cc1
  -10 | 62* | nt | 2 | 22 | -20
Clc1ccc(-c2noc(COc3ccccc3)n2)cc1
  nt | 35 | nt | -1 | 2 | -18
N/C(=N\N=C\c1ccc(O)c(O)c1)c1nonc1N
  -5 | 65* | nt | nt | -5 | nt
COc1ccccc1-c1cnc2c(c1)C(=O)N([C@H](C)CO)C[C@@H](C)[C@@H](CN(C)CC1CCOCC1)O2
  -5 | -6 | 0 | 6 | 1 | nt
Cc1ccc(N=Nc2c(O)n(CN3CCOCC3)c3ccccc23)cc1
  -19 | 54* | nt | 3 | -4 | -21
Cc1cccc(NC(=S)N=Nc2c(O)n(CN3CCOCC3)c3ccccc23)c1C
  0 | nt | nt | -4 | nt | -22
CCOC(=O)C1CCCN(C(=O)c2cc(COc3ccc(C)nc3)on2)C1 (stereo not drawn)
  nt | 27 | -1 | 0 | 9 | 15

Some of the entries so far, as tab-separated lines:
molecule	PGC1a acetyl inh	esBAF inh	E-sel inducer	PglD DTNB	Statin myotox sup	Yeast UUG start
Clc1ccc(OCc2nc(-c3ccncc3)no2)cc1	-10	62*	nt	2	22	-20
Clc1ccc(-c2noc(COc3ccccc3)n2)cc1	nt	35	nt	-1	2	-18
N/C(=N\N=C\c1ccc(O)c(O)c1)c1nonc1N	-5	65*	nt	nt	-5	nt
COc1ccccc1-c1cnc2c(c1)C(=O)N([C@H](C)CO)C[C@@H](C)[C@@H](CN(C)CC1CCOCC1)O2	-5	-6	0	6	1	nt
Cc1ccc(N=Nc2c(O)n(CN3CCOCC3)c3ccccc23)cc1	-19	54*	nt	3	-4	-21
Cc1cccc(NC(=S)N=Nc2c(O)n(CN3CCOCC3)c3ccccc23)c1C	0	nt	nt	-4	nt	-22

(list continues)
Sequence of screens: PGC1a acetyl inh | esBAF inh | E-sel inducer | PglD DTNB | Statin myotox sup | Yeast UUG start
COc1ccc(OCc2cc(C(=O)N3CCC(OC)CC3)no2)c2ccccc12
  nt | 70* | nt | -4 | -2 | 6
COCC1CCN(C(=O)c2cc(COc3ccc(OC)c4ccccc34)on2)C1 (stereo not drawn)
  nt | ? | nt | -3 | -8 | -11
CC1CCN(C(=O)c2cc3c(ccc4ccccc43)o2)CC1
  nt | nt | -1 | 17 | nt | -52
CCOC(=O)C1CCN(C(=O)c2cc3c(ccc4ccccc43)o2)CC1
  5 | 71* | 0 | -3 | -10 | -6
CCOC(=O)C1CCN(C(=O)c2cc(COc3ccc(OC)c4ccccc34)on2)CC1
  6 | 57* | nt | 6 | 1 | -13
CC1CC(c2ccccc2)n2nc(N3C(=O)c4ccccc4C3=O)nc2N1 (stereo not drawn)
  -7 | -3 | nt | nt | 101* | -29
COc1ccc(C(=O)c2c3ccccc3[n+]([O-])n2Cc2ccc(C(N)=O)cc2)cc1
  nt | 19 | 0 | -10 | -7 | -16
COc1ccc2c(C(=O)c3ccc(C)cc3)n(Cc3ccc(C(N)=O)cc3)[n+]([O-])c2c1
  -2 | 101* | 1 | -4 | 16 | 6
COc1ccc(C(=O)c2c3ccccc3[n+]([O-])n2CCCN)cc1
  1 | 29 | 0 | -3 | 0 | -18
COc1ccc(C(=O)c2c3ccccc3[n+]([O-])n2CCC(N)=O)cc1
  2 | 47* | 0 | -1 | 6 | -12
C[C@@H]1CN([C@H](C)CO)C(=O)c2cc(NC(=O)C3CCCCC3)ccc2O[C@@H]1CN(C)S(=O)(=O)c1cn(C)cn1
  0 | -6 | 0 | 1 | 7 | 5
C=CCn1c(-c2ccccc2)cc(SC)c(C#N)c1=O
  nt | -15 | nt | -1 | -3 | 6
CCCn1c(-c2ccccc2)cc(SC)c(C#N)c1=O
  93* | -7 | nt | nt | -8 | nt
O=C1c2cccc3c(N4CCCCC4)ccc(c23)C(=O)N1CCO
  1 | 72* | nt | 4 | 10 | -5
O=C1c2cccc3c(N4CCCCC4)ccc(c23)C(=O)N1c1cccc(O)c1
  nt | nt | 0 | nt | nt | nt
O=C1COc2ccc(C(=O)COC(=O)c3ccccc3[N+](=O)[O-])cc2N1
  nt | 77* | -1 | 9 | -5 | -21
COC(=O)C1CCCN1C(=O)C1CCCN1C(=O)CNC(=O)OCc1ccccc1 (stereo not drawn)
  -1 | 0 | nt | 6 | 82* | 3
COC(=O)CNC(=O)C1CCCN1C(=O)CNC(=O)OCc1ccccc1 (stereo not drawn)
  nt | nt | 0 | nt | nt | nt

Screens as filed in PubChem BioAssay.
